Test results as given in patent US10669242B2 (priority 2016, dated 2020).

System: C. difficile strain 630
Assay type: in vivo, Golden Syrian hamsters
Details: PO twice per day; Example 5ae 50 mg/kg 7 days; vancomycin 5 mg/kg 5 days

O=C(Nc1ccc(C(F)(F)F)cn1)c1ccc(CN2C(=O)c3ccc(Cl)cc3NC(=O)[C@H]2Cc2ccccn2)cc1Cl [Example 5ae, (R)-2-Chloro-4-((8-chloro-2,5-dioxo-3-(pyridin-2-ylmethyl)-2,3-dihydro-1H-benzo[e][1,4]diazepin-4(5H)-yl)methyl)-N-(5-(trifluoromethyl)pyridin-2-yl)benzamide]
body weight loss: only exhibited a slight reduction in weight loss
